Conditions: rat, oral prodrug 25 mg-equivalents of gabapentin per kg
Method: The pharmacokinetics of the prodrugs prepared in Examples 1 and 3 were examined in rats. […] Animals were fasted overnight prior to dosing and until 4 hours post-dosing. Serial blood samples were obtained over 24 hours following dosing and blood was processed for plasma by centrifugation. Plasma samples were stored at −80° C. until analyzed.
Plasma (50 μL) was precipitated by addition of […] of methanol and supernatant was injected directly onto the LC/MS/MS system. […] Following oral administration of gabapentin prodrugs, concentrations of prodrug and gabapentin in plasma were monitored over 24 hours.

L-Tyrosine-(O-2-Bromobenzyloxycarbonyl)-Gabapentin [4d]
Cmax PD (Cmax of prodrug in plasma): < 4 ng/mL

From patent publication US20040254344A1, “Amino acid conjugates providing for sustained systemic concentrations of gaba analogues” (priority 2001, published 2004)
